{"source": "patent US20240293443A1", "about": "“HEPARAN SULFATE MIMETICS TO IMPROVE GLUCOSE CLEARANCE” (The Regents of the University of California, priority 2021, published 2024)", "key": {"WT adipocytes": {"tested_on": "WT adipocytes", "assay": "3[H]-2-deoxy-glucose uptake in WT MEF-derived adipocytes", "type": "cell-based, mouse", "conditions": "Wnt inhibitor treatment during the first 3 days of adipogenesis", "experimental": "(§1) Cells were seeded on a 24-well plate at a density of 30,000 cells/cm^2. Cells were allowed to grow to confluence for 48 hours. At this point (Day 0), the media were removed, cells were washed with PBS, and differentiation media with or without heparin (100 μg/ml) were added. […] On Day 3 of differentiation, cells were washed with PBS and treated with insulin media, which consisted of 2 μM insulin, and 1 μM rosiglitazone in DMEM with 10% FBS. The cellular cholesterol and triglyceride content was determined after lysing cells in 0.1M NaOH. Total plasma cholesterol and plasma triglyceride levels (Sekisui Diagnostics) and protein levels (BCA protein assay) were determined using commercially available kits.\nCells are washed twice with PBS and placed into DMEM with 2 mg/mL BSA for two hours. […] The radioactive lysate was transferred to a scintillation vial containing 5 mL of Ultima Gold liquid scintillation fluid and analyzed using a liquid Scintillation counter.\nCells were differentiated for 6 days using the standard adipogenic differentiation protocol described above. […] On Day 6, the adipocytes were subjected to the ^3[H]-2-deoxy-glucose uptake assay and the spent media were analyzed for glucose and lactate content as described above."}, "Ndst1−/− adipocytes": {"tested_on": "Ndst1−/− adipocytes", "assay": "3[H]-2-deoxy-glucose uptake in Ndst1−/− MEF-derived adipocytes", "type": "cell-based, mouse", "conditions": "12.5 nM during the first 3 days of adipogenesis", "experimental": "as §1, with “kits. Cells are washed twice with PBS and placed into DMEM with 2 mg/mL BSA for two hours. […] The insulin solution is then removed and the cells are washed twice with transport solution before radioactive transport solution is added, which consists of 0.25 μCi/well of 3[H]-2-deoxy-glucose and 0.025 mM 2-deoxy-glucose. […] The radioactive lysate was transferred to a scintillation vial containing 5 mL of Ultima Gold liquid scintillation fluid and analyzed using a liquid Scintillation counter. […] On Day 6, the adipocytes were subjected to the ^3[H]-2-deoxy-glucose uptake assay and the spent media were analyzed for glucose and lactate content as described above.” for “kits.”"}}, "data": [{"smiles": "O=C(Nc1ccc([N+](=O)[O-])cc1Cl)c1cc(Cl)ccc1O", "note": "[Niclosamide]", "values": [{"measurement": "glucose clearance in differentiated adipocytes", "setting": "WT adipocytes", "value": "unable to significantly enhance glucose clearance"}, {"measurement": "glucose clearance in differentiated adipocytes", "setting": "Ndst1−/− adipocytes", "value": "able to enhance glucose clearance"}]}]}
